This passage reports inhibition results from ChEMBL document CHEMBL4251566 (Eur J Med Chem, 2018).

In the assay the target is T1, Tyrosine-protein kinase JAK3 (Homo sapiens) (UniProt P52333).
T1 sequence (whole entry): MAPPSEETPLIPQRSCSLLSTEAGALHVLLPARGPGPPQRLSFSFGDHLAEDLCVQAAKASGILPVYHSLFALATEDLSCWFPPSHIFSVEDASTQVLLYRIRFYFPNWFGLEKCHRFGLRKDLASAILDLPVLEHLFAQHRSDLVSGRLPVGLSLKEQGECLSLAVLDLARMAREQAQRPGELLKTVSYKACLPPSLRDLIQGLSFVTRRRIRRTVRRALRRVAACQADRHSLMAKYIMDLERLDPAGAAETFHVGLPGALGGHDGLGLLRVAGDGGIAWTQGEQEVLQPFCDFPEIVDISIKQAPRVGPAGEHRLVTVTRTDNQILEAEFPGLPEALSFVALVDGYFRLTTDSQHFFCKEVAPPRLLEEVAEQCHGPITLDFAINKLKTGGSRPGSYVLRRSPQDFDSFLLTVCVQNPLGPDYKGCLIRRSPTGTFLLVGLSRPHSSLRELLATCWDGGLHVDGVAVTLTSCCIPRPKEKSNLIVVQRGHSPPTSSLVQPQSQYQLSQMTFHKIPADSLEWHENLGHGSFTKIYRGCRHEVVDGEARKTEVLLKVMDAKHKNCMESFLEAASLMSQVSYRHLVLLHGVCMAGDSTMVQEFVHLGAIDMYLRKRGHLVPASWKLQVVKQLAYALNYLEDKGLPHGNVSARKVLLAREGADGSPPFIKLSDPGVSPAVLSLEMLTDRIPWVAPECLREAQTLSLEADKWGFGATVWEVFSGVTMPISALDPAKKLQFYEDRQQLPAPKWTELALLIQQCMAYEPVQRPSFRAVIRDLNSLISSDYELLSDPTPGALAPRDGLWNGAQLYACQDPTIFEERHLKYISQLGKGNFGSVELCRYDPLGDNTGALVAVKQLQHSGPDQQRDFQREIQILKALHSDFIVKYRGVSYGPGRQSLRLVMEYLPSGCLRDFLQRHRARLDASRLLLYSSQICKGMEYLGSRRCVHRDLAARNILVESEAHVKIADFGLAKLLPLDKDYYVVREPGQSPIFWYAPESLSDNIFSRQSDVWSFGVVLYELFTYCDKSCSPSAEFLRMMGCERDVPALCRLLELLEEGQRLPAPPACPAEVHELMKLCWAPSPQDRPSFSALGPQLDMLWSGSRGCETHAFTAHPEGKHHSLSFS
As to conditions: 10 uM.

Active and inactive are the calls of the source. The calls are words filed in the database; no cut-off is given here.

In the case of `C=CC(=O)N1CCC[C@@H](n2nc(-c3ccc(Oc4ccccc4)cc3)c3c(N)ncnc32)C1` [IBRUTINIB], the inhibition entry was “Active”.
